Source: ChEMBL document CHEMBL1134282, “Methyl analogues of the experimental Alzheimer drug phenserine: synthesis and structure/activity relationships for acetyl- and butyrylcholinesterase inhibitory action” (J Med Chem, 2001)

Sequences of proteins named here, by UniProt entry; tags and fusion partners are left off. A change or cut given only in a name is not applied to a line headed by its entry.
UniProt P22303: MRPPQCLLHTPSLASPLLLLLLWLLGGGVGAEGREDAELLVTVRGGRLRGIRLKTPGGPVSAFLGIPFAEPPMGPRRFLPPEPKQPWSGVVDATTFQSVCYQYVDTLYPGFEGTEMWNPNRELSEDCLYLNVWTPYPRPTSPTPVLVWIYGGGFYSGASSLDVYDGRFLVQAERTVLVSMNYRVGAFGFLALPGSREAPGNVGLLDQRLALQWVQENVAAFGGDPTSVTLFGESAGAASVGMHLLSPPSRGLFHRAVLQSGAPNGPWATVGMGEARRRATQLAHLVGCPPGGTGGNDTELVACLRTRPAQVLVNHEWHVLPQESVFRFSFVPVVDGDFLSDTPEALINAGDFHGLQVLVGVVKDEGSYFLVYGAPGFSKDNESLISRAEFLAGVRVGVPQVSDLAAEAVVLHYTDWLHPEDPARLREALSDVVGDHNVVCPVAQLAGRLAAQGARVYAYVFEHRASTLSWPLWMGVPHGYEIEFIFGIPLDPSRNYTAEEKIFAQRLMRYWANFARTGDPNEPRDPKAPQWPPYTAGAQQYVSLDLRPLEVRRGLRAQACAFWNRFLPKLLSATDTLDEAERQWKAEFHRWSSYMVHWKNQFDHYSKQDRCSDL
UniProt P06276, whole entry: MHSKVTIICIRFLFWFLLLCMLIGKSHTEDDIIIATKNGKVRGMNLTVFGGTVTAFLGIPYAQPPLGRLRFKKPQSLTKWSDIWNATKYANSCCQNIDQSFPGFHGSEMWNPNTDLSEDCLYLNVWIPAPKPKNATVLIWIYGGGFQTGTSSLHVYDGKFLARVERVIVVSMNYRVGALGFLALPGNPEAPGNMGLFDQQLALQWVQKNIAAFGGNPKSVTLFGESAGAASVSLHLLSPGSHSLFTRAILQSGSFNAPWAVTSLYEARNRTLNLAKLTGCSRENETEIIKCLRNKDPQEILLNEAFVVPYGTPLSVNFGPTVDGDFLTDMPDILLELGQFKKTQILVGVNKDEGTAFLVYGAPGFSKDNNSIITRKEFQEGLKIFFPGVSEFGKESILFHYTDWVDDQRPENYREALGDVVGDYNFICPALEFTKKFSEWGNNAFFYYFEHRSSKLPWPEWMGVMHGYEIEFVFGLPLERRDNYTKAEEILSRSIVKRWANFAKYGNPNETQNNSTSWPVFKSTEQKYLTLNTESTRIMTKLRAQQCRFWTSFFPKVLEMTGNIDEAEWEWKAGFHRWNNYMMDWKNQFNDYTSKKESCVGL

How the values were obtained:
[1] = target: Acetylcholinesterase (Homo sapiens, UniProt P22303); experiment: In vitro inhibition of human erythrocyte acetylcholinesterase.
[2] = target: Cholinesterase (Homo sapiens, UniProt P06276); experiment: In vitro inhibition of human plasma butyrylcholinesterase.; type: cell-free

Row | SMILES | IC50 [1] | IC50 [2]
1 | CN1CC[C@@]2(C)c3cc(OC(=O)Nc4ccccc4)ccc3N(C)[C@@H]12 [PHENSERINE] | 22 nM | –
2 | CC(C)c1ccc(NC(=O)Oc2ccc3c(c2)[C@]2(C)CCN(C)[C@@H]2N3C)cc1 [4-ISOPROPYLPHENSERINE] | – | 50 nM
